# Assay results reported in PubChem BioAssay AID651718 (The Scripps Research Institute Molecular Screening Center, 2012).
# The entries are a selection whose mix differs from that of the whole data set. Some salts and complexes are drawn in separate pieces, as the source files them; their charges need not balance. The source made the active and inactive calls. Rule as the data show it: active = inhibition above about 4.5%; inactive = the rest.
# System: Methionine sulfoxide reductase A (Bos taurus)
# Assay: bovine MsrA enzyme inhibitors, primary screen, biochemical, absorbance, HTS (AID 651718);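 also: 0% = vehicle wells with enzyme and 100% = reference inhibitor wells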
# Settings: purified bovine MsrA, absorbance read-out; at 15.5 µM; active compounds read high
row,Structure (SMILES),inhibition
1,CP(=O)(Nc1ccccc1)Oc1ccc(F)cc1 (stereo not given),inactive: -1.03%
2,O=[N+]([O-])c1cc([N+](=O)[O-])c(OC2CCCCC2O)c([N+](=O)[O-])c1 (stereo not given),active: 4.86%
3,CCCCCOc1ccc(NP(C)(=O)Oc2ccc(Cl)cc2Cl)cc1 (stereo not given),inactive: 0.84%
4,O=[N+]([O-])c1cc([N+](=O)[O-])c(Nc2ccc(Cl)cc2)c([N+](=O)[O-])c1,inactive: 1.14%
5,CP(=O)(Nc1ccccc1F)Oc1ccccc1 (stereo not given),inactive: 0.86%
6,CC(C)c1ccc(OP(C)(=O)Nc2ccc(SC(F)(F)F)cc2)cc1 (stereo not given),inactive: -1.66%
7,O=C(OC1CN2CCC1CC2)c1ccc([N+](=O)[O-])cc1 (stereo not given),inactive: 0.87%
8,O=C(OCCN1CCN(CCOCc2ccccc2)CC1)C(O)(c1ccccc1)c1ccccc1,inactive: -0.68%
9,COc1ccc2c(c1O)-c1c(O)c(OC)cc3c1[C@H](C2)[N+](C)(C)CC3.O=[N+]([O-])c1cc([N+](=O)[O-])c([O-])c([N+](=O)[O-])c1[O-],inactive: 3.5%
10,CP(=O)(Nc1ccc(SC(F)(F)F)cc1)Oc1ccc(F)cc1 (stereo not given),inactive: -1.22%
11,CCOP(C)(=S)SCC(=O)NC(C)(CC)C(=O)O (stereo not given),inactive: 0.64%
12,CCOP(=O)(CC)OCC,inactive: 1.37%
13,CP(=O)(Nc1ccc2c(c1)OCCO2)Oc1ccccc1 (stereo not given),inactive: 0.51%
14,Cc1ccccc1NP(C)(=O)Nc1ccccc1C,inactive: -0.79%
15,O=[N+]([O-])c1cc([N+](=O)[O-])c(C(F)(F)F)c([N+](=O)[O-])c1O,inactive: 2.27%
16,COc1ccc(OP(C)(=O)Nc2cccc(Br)c2)cc1 (stereo not given),inactive: 0.74%
17,CN(C)CCOC(=O)C(O)(c1ccccc1)C1CCCCC1 (stereo not given),inactive: -0.17%
18,COc1ccc(NP(C)(=O)Oc2ccccc2OC)cc1 (stereo not given),inactive: -0.97%
19,O=[N+]([O-])c1ccc(OP2(=O)COCCO2)cc1 (stereo not given),inactive: -0.39%
20,Cc1cc(-c2cccc3ccccc23)c(C)cn1.O=[N+]([O-])c1cc([N+](=O)[O-])c(O)c([N+](=O)[O-])c1,inactive: 1.99%
21,O=[N+]([O-])c1cc([N+](=O)[O-])c(NCC2CCS(=O)(=O)C2)c([N+](=O)[O-])c1 (stereo not given),active: 5.02%
22,Cc1c(C(c2ccc3c(c2)OCO3)c2c(C)n(C)n(-c3ccccc3)c2=O)c(=O)n(-c2ccccc2)n1C.O=[N+]([O-])c1cc([N+](=O)[O-])c(O)c([N+](=O)[O-])c1,inactive: 0.89%
23,Nc1ccc2c(ccc3cccnc32)n1.O=[N+]([O-])c1cc([N+](=O)[O-])c(O)c([N+](=O)[O-])c1,inactive: 3.93%
24,CCOC(=O)c1ccc(NP(C)(=O)Oc2ccc(Cl)cc2)cc1 (stereo not given),inactive: -0.23%
25,CP(=O)(OC12CC3CC(CC(C3)C1)C2)OC12CC3CC(CC(C3)C1)C2,inactive: 2.21%

row,Structure (SMILES),inhibition
1,CCN(CC)CC(O)COC(=O)C(O)(c1ccccc1)C1CCCCC1 (stereo not given),inactive: -0.58%
2,COc1ccc(OP(C)(=O)Nc2ccc(Br)cc2)cc1 (stereo not given),inactive: -0.22%
3,COc1ccccc1OP(C)(=O)Nc1c(C)n(C)n(-c2ccccc2)c1=O (stereo not given),inactive: 0.32%
4,O=C(OCCCN1CCCC1)C(O)(c1ccccc1)C1CCCCC1 (stereo not given),inactive: 1.57%
5,CP(=O)(Oc1ccccc1)N1CCOC1=O (stereo not given),inactive: -0.05%
6,CCc1ccc(OP(C)(=O)Nc2cccnc2)cc1 (stereo not given),inactive: 0.86%
7,CC(C)(C)c1ccc(OP(C)(=O)O)cc1,inactive: 0.77%
8,COc1ccccc1OP(C)(=O)Nc1ccccc1Br (stereo not given),inactive: -1.35%
9,CP(=O)(Nc1ccc(Cl)cc1)Oc1ccc(F)cc1 (stereo not given),inactive: -0.31%
10,CN(C)C(=O)c1c([N+](=O)[O-])cc([N+](=O)[O-])cc1[N+](=O)[O-],inactive: 1.34%
11,COc1ccccc1OP(C)(=O)Nc1ccc(Br)cc1 (stereo not given),inactive: -0.7%
12,COc1ccc(OP(C)(=O)Nc2ccccn2)cc1 (stereo not given),inactive: -0.12%
13,CN(C)CCOC(=O)C(O)(c1ccccc1)C1CCCC1 (stereo not given),inactive: 0.37%
14,O=[N+]([O-])c1cc([N+](=O)[O-])c(Nc2ccccn2)c([N+](=O)[O-])c1,inactive: 2%
15,Cc1c(NP(C)(=O)Oc2ccc(C(C)C)cc2)c(=O)n(-c2ccccc2)n1C (stereo not given),inactive: -0.63%
16,CP(=O)(Nc1ccccn1)Oc1ccccc1 (stereo not given),inactive: -0.26%
17,COc1ccccc1OP(C)(=O)Nc1ccc(C)cc1C (stereo not given),inactive: -0.58%
18,CCc1ccc(OP(C)(=O)O)cc1,inactive: -0.33%
19,O=C1C(O)=C([N+](=O)[O-])C(=O)C(O)=C1[N+](=O)[O-],inactive: 2.01%
20,Cc1cc(C)cc(OP(C)(=O)Nc2cccc(C(F)(F)F)c2)c1 (stereo not given),inactive: 1.14%
21,COc1ccccc1OP(C)(=O)Nc1ccc(C)c(C)c1 (stereo not given),inactive: 0.46%
22,COc1ccc(OP(C)(=O)Nc2ccccc2Br)cc1 (stereo not given),inactive: 0.49%
23,CP(=O)(OCCOc1ccccc1)OCCOc1ccccc1,inactive: 2.03%
24,CP(=O)(Nc1ccc(Cl)cc1Cl)Oc1ccccc1 (stereo not given),inactive: 0.89%
25,CCCCCCCCCCCCCCCC1C[N+](C)(C)CCOP(C)(=O)O1 (stereo not given),inactive: -1.51%
